Shown are actives, neighbours in structure and some others; about 2.1% of the full set was active somewhere.
NR1D1 modulator = modulators of Rev-erb alpha DNA binding, primary screen, biochemical, FITC-DNA, fluorescence polarization, uHTS; Nuclear receptor subfamily 1 group D member 1 (Homo sapiens), P20393; Rev-erbα–FITC-DNA binding, 90 min; activity, % at 10 µM; 0.79% of 370,000 active;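 active = activity above about 14%, limit read from the data; passing the limit was not always enough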;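 also: 0% = DMSO wells with 35 nM protein and 100% = DMSO wells with 750 nM protein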
Yeast UUG start-1 = modulators of yeast start codon fidelity, primary screen, whole organism, S. cerevisiae, single point, plate reader | activity score, % at 18.7 µM | 350,000 tested, 0.13% active | S. cerevisiae UUG-firefly luciferase reporter, luminescence/redox ratio;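 active means replicate mean at a twofold rise or more, about +100% in these data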;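 further: firefly luciferase made from a UUG start codon reports start codon fidelity; reporter light over untreated wells divided by growth signal over untreated wells; some hits fall short of that in this replicate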
ERp5 block = inhibitors of ERp5-driven insulin aggregation, primary screen, biochemical, turbidity, absorbance 650 nm, single point; 90 min; inhibition, % at 9.99 µM; 0.05% of 350,000 active;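 active = mean replicate inhibition above about 25%, with every replicate also reaching it, limit read from the data, passing the limit was not always enough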
SMARCA2 activ = SMARCA2 (BRM) function activators, primary screen, cell-based, luminescence, high throughput. MG213 cells, MMTV-luciferase reporter, dexamethasone, overnight. activation, % at 9.1 µM. 1% of 370,000 active. AID 652017, 2013; in the data active = activation above about 7.8%;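 also: 0% = vehicle wells and 100% = reference activator wells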
INS-1E GSIS act = GLuc luminescence reporter in INS-1E cells, primary screen for activators of glucose-dependent secretion of insulin. INS-1E GLuc reporter insulin secretion, 2-3 h. activation, % at 16.6 µM. 0.61% of 370,000 active. AID 743287, 2014;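 active = lowest replicate activation of at least 40%, so every replicate reaches that level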;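 also: 0% = median of neutral control wells and 100% = median of IBMX positive control wells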
PDI inh = inhibitors of human PDI, primary screen, biochemical, turbidity, single point, plate reader. Protein disulfide-isomerase (Homo sapiens), P07237. inhibition, % at 10 µM. PDI insulin aggregation turbidity, A650, 90 min. 0.052% of 350,000 active;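 active = mean inhibition across replicates of 30% or more, whatever share of single replicates reach that level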
Yeast UUG start-2 = enhancers of UUG start codon usage in yeast, dose response, S. cerevisiae, UUG firefly luciferase, cherry-pick, set 2; activation, % at 38 µM; shares compounds with Yeast UUG start-1; luminescence, 4 h; 100% means double the DMSO signal; 540 tested, under 10 active;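 active = signal increase whose fitted curve reaches an absolute level of 40 at a concentration under 10 µM; inactive = activity opposite to the expected increase, or the rest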
Starred values were filed as active, the others as inactive; i = inactive; / = no result.

Sequences of proteins named here, by UniProt entry; tags and fusion partners are left off.
Protein disulfide-isomerase (Homo sapiens), P07237, UniProt P07237, whole entry, looked up: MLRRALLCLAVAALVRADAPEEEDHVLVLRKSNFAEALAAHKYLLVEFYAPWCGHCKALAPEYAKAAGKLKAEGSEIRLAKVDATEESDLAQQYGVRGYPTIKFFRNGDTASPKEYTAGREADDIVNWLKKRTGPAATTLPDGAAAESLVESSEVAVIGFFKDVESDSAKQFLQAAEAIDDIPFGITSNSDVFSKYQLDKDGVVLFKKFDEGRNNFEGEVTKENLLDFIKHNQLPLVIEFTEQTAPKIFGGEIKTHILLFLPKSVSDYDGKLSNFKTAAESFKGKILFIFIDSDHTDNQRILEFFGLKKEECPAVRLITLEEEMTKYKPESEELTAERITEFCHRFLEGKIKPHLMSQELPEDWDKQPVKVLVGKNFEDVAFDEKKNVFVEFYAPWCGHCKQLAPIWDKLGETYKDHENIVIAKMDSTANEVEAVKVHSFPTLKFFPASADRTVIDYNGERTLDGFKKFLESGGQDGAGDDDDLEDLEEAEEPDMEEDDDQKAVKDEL

Each structure is followed by: NR1D1 modulator | Yeast UUG start-1 | ERp5 block | SMARCA2 activ | INS-1E GSIS act | PDI inh | Yeast UUG start-2
CCOc1ccc(C(C)=O)cc1CSc1nc(C)cc(C)n1
  -5 | 213* | 2 | 1 | 10 | -3 | 4
Cn1nc(C(=O)NCc2ccccc2)c2ccccc2c1=O
  -6 | -12 | / | -2 | / | -1 | /
CCN(CC)CCNC(=O)Cn1nc(Cc2cccnc2)c2ccccc2c1=O
  -4 | -8 | -3 | -4 | / | / | /
CCCCn1nc(CC(=O)NCCN(CC)CC)c2ccccc2c1=O
  -5 | / | 0 | -1 | 3 | -2 | -6
CCN(CC)CCNC(=O)C(C)c1nn(C)c(=O)c2ccccc12 (stereo not drawn)
  0 | 5 | / | 3 | / | -2 | -5
O=C(NC1CCCC1)[C@H]1[C@H](CO)[C@H]2Cn3c(cccc3=O)[C@@H]1N2Cc1cc(F)ccc1F
  / | -9 | -5 | / | 5 | / | /
C[C@@H]1CN([C@@H](C)CO)C(=O)Cc2cc(NS(=O)(=O)c3cccs3)ccc2O[C@H]1CN(C)Cc1ccc(C(=O)O)cc1
  / | -1 | -11 | / | 23 | / | /
Cc1cc(Cl)ccc1NC(=S)NCCC(c1ccccc1)c1ccccc1
  3 | 112* | / | -5 | / | -6 | 7
Cc1c(Cl)cccc1NC(=S)NCCC(c1ccccc1)c1ccccc1
  -7 | -7 | / | -2 | -49 | 9 | /
CO[C@@H]1CN(C)C(=O)c2cc(NC(C)=O)ccc2OC[C@H](C)NC[C@@H]1C
  / | / | 7 | / | 9 | / | /

By substructure: the entries above with four or more nitrogen atoms (3)
Each structure is followed by: NR1D1 modulator | Yeast UUG start-1 | ERp5 block | SMARCA2 activ | INS-1E GSIS act | PDI inh | Yeast UUG start-2
CCN(CC)CCNC(=O)Cn1nc(Cc2cccnc2)c2ccccc2c1=O
  -4 | -8 | -3 | -4 | / | / | /
CCCCn1nc(CC(=O)NCCN(CC)CC)c2ccccc2c1=O
  -5 | / | 0 | -1 | 3 | -2 | -6
CCN(CC)CCNC(=O)C(C)c1nn(C)c(=O)c2ccccc12 (stereo not drawn)
  0 | 5 | / | 3 | / | -2 | -5

(cont.)
Each structure is followed by: NR1D1 modulator | Yeast UUG start-1 | ERp5 block | SMARCA2 activ | INS-1E GSIS act | PDI inh | Yeast UUG start-2
Cc1ccc(C)c(N2C(=N)S/C(=C\c3ccc(-c4ccccc4C(=O)O)o3)C2=O)c1
  -1 | 113* | -5 | -5 | -14 | -7 | -4
C=CCN(c1ccccc1)S(=O)(=O)c1cccc(C(=O)O)c1
  -6 | 519* | / | -4 | / | 2 | 0
C=CCN(c1ccccc1)S(=O)(=O)c1cccc(C(=O)NNC(=O)c2ccccc2O)c1
  -4 | -18 | -25 | -1 | -53 | 1 | /
C[C@H]1CCCCO[C@@H](CN(C)Cc2ccc(C(F)(F)F)cc2)[C@@H](C)CN([C@@H](C)CO)C(=O)c2cc(NC(=O)Cc3ccccc3)ccc2O1
  / | 10 | / | / | -7 | / | /
C[C@@H](NC(=O)C[C@@H]1CC[C@H](NC(=O)C2CCOCC2)[C@H](CO)O1)c1ccccc1
  / | 171* | -2 | / | 15 | / | i
C[C@@H](NC(=O)C[C@@H]1CC[C@H](NC(=O)Nc2ccc3c(c2)OCO3)[C@@H](CO)O1)c1ccccc1
  / | 127* | 4 | / | 8 | / | i
C[C@H](NC(=O)C[C@@H]1CC[C@H](NC(=O)Nc2ccc3c(c2)OCO3)[C@H](CO)O1)c1ccccc1
  / | -15 | 4 | / | -8 | / | /
C[C@@H]1CCCCO[C@H](CN(C)C(=O)CCCN(C)C)[C@H](C)CN([C@@H](C)CO)C(=O)c2cc(NC(=O)Nc3ccccc3)ccc2O1
  / | 6 | -1 | / | 6 | / | /
CCN(C[C@H]1[C@@H](c2ccccc2)[C@@H](CO)N1C(C)=O)C(=O)c1ccccn1
  / | 127* | 3 | / | 5 | / | i
CCOC(=O)CNC(=O)c1nn(-c2ccc(OCC)cc2)c(=O)c2ccccc12
  -5 | 119* | / | -1 | 7 | 7 | -9

(further entries)
Each structure is followed by: NR1D1 modulator | Yeast UUG start-1 | ERp5 block | SMARCA2 activ | INS-1E GSIS act | PDI inh | Yeast UUG start-2
COc1ccc(-c2cn(CC(=O)N3CCN(C)CC3)nn2)cc1OC
  / | 148* | 1 | / | / | / | i
C/C=C/c1cnc2c(c1)C(=O)N([C@H](C)CO)C[C@H](C)[C@H](CN(C)C(=O)c1cnccn1)O2
  / | 137* | 1 | / | 25 | / | i
C/C=C/c1cnc2c(c1)C(=O)N([C@@H](C)CO)C[C@H](C)[C@@H](CN(C)C(=O)c1cnccn1)O2
  / | 6 | 0 | / | 10 | / | /
C[C@H](CO)N1C[C@H](C)[C@@H](CN(C)C(=O)c2ccccn2)Oc2ncc(Br)cc2C1=O
  / | 202* | 3 | / | 14 | / | i

Source: PubChem (several laboratories)
